Molecular target: T1, Human α-thrombin (Homo sapiens, UniProt P00734)
T1 construct: Human α-thrombin was purchased from Haemotologic Technologies, Inc., VT, USA; purchased Haemotologic Technologies, Inc., VT, USA
Assay: Thrombin inhibition constants of monovalent active-site moieties and TWE1 (method not described)
Format: biochemical
Conditions: monovalent binding moieties for the active site of thrombin

Question: Which Ki does the source give for `CC1CNc2c(cccc2S(=O)(=O)N[C@@H](CCCNC(=N)N)C(=O)N2CC[C@@H](C)C[C@@H]2C(=O)O)C1` (stereo partly shown) [Argatroban, reference compound] here?
Answer: 2 ± 0.2 nM

Source: patent publication US10155802B2, “Locally-active anticoagulants and anti-inflammatory agents” (priority 2011, dated 2018)
